Reference: ChEMBL document CHEMBL1133538, “7-Deazaadenines bearing polar substituents: structure-activity relationships of new A(1) and A(3) adenosine receptor antagonists” (J Med Chem, 2000)

Protein sequences, listed by entry. Tags and fused reporters are not part of them.
UniProt P25099, whole entry: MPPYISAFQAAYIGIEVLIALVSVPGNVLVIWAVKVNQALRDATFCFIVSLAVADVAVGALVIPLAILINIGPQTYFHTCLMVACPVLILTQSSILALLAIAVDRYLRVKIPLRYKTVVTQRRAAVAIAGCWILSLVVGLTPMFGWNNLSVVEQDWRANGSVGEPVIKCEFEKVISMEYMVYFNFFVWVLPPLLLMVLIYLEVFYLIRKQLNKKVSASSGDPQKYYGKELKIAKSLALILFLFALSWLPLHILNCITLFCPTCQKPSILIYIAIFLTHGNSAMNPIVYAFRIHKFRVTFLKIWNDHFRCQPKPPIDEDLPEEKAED

Biological target: Adenosine receptor A1 (Rattus norvegicus, UniProt P25099)
Test: Tested for its binding affinity at adenosine A1 receptor in rat brain cortical membrane preparations using [3H]CCPA as a radioligand
Type: cell membranes
Outline: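 Rat brain cortical membranes, A1 agonist radioligand [3H]CCPA at 0.5 nM. Compounds dissolved in DMSO, diluted into aqueous buffer, tested at 5-7 concentrations in triplicate, at least three separate experiments. IC50 from nonlinear curve fitting, converted to Ki with Cheng-Prusoff using KD 0.2 nM.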

Ki: 7.9 µM
Compound: Nc1nc(-c2cccnc2)nc2c1c1c(n2-c2ccccc2)CCCC1
